Apparent affinities of Ab-14 variants for a coronavirus HR2 peptide

The target is the same throughout: PDVDLGDISGINAS, from the HR2 region of SARS-CoV-2 spike.

Each scFv is VH, the linker GGGGSGGGGSGGGGS, VL, as in the parent Ab-14, and differs from it in the CDRs of the heavy chain only.
VH: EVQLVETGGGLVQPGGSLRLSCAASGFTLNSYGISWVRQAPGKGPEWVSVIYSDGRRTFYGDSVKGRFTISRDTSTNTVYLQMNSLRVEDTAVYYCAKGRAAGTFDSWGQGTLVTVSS
VL: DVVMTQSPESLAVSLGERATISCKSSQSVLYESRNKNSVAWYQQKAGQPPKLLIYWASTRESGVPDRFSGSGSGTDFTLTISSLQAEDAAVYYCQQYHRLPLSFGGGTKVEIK

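Phage display of a naive human antibody library on the peptide gave the parent. Variants in AAYL49 differ from the parent at up to three CDR positions; double and triple changes were sampled at random. Affinity was read by AlphaSeq, a pooled yeast mating assay with surface-displayed partners. Binding brings cells together so that they mate, and sequencing counts the barcode pairs among the diploids. Each replicate has its own calibration line, from reference interactions of the BCL2 family. Mating was done three times.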

Positions count from residue 1 of the parent VH; I34Y puts Y in place of I. This list gathers variants with a substitution at T104 (VH, numbered from residue 1). Each Kd is an estimate from the mating assay, the geometric mean of the replicates in which the pair was seen; lower is stronger. "not detected" marks a missing value. The strain was present, yet no cells mated with the target were sequenced in any replicate, which points to weak or no binding.

changes	Kd	seen in
I34Y G61D T104D	540 nM	3/3
I51P G55S T104D	13 µM	3/3
I51C D54C T104M	not detected	0/3
T104M	4.5 nM	3/3
G55A S63W T104Q	1.7 µM	2/3
T28V Y52R T104Q	150 µM	1/3
F27K Y52D T104A	120 µM	1/3
N30F Y52I T104I	not detected	0/3
G61P R100G T104Q	not detected	0/3
L29C K65I T104D	not detected	0/3
T104Q	not detected	0/3
G55T G103K T104F	not detected	0/3
S35A T104M D106H	not detected	0/3
D54K K65L T104E	4.6 µM	1/3
F27H D62G T104S	84 nM	1/3
I34D S35F T104I	not detected	0/3
F59E S63M T104S	410 nM	3/3
S31D A102G T104P	not detected	0/3
T28E G55Y T104A	not detected	0/3
N30T V50E T104V	not detected	0/3
T104E D106S	not detected	0/3
T28G Y60F T104H	not detected	0/3
I34D G103T T104E	not detected	0/3
I34M T104W F105A	25 nM	3/3
K65T T104P S107R	370 nM	3/3
G26L T104K	14 µM	1/3
T28L R100T T104E	2.9 µM	1/3
T28V G55L T104E	1.9 µM	1/3
R56E R57N T104P	not detected	0/3
L29T G99A T104L	790 nM	3/3
G33L S35W T104D	140 µM	2/3
R56L T104H S107K	97 µM	1/3
F27P T104A	not detected	0/3
G33W R57M T104L	20 µM	2/3
R57C T104A	1.8 µM	1/3
I51R T104Q D106K	not detected	0/3
G103P T104K D106R	77 µM	3/3
S31P T104S	62 µM	2/3
T104W S107K	not detected	0/3
I51W D62R T104Y	18 µM	1/3
V50C T58G T104L	not detected	0/3
Y52V G103V T104M	not detected	0/3
F27E R56S T104F	not detected	0/3
R57H G61Q T104G	not detected	0/3
G33Q G55I T104A	78 µM	3/3
V50I T104H	60 nM	3/3
G26H V50G T104Q	not detected	0/3
F27E F59T T104S	1.9 µM	3/3
R100L T104G D106R	95 nM	3/3
G33H V50H T104F	8.1 µM	1/3
G26S V50A T104M	not detected	0/3
Y32E R57S T104M	not detected	0/3
D54H G61I T104L	not detected	0/3
Y52K T104C D106V	not detected	0/3
N30C G33T T104F	7.6 µM	2/3
F27D R57Y T104R	7.8 µM	2/3
F27D T104I	not detected	0/3
F27E G33V T104A	not detected	0/3
R56H T104D S107D	140 nM	3/3
Y52R T104P	590 µM	1/3
D62I G103H T104G	34 µM	2/3
I51P Y52N T104G	120 µM	2/3
D62T S63M T104N	not detected	0/3
I51K T104L F105N	not detected	0/3
T104W D106H	not detected	0/3
R100F T104Q	32 µM	2/3
F27H T104H	180 nM	3/3
N30A R100G T104I	100 nM	3/3
D62F T104A	not detected	0/3
R100M T104S D106G	75 µM	3/3
S53T R100H T104Q	not detected	0/3
D62N R100L T104Q	not detected	0/3
A101F G103K T104C	not detected	0/3

The last 4 entries again:

| changes | Kd | seen in |
|---|---|---|
| R100M T104S D106G | 75 µM | 3/3 |
| S53T R100H T104Q | not detected | 0/3 |
| D62N R100L T104Q | not detected | 0/3 |
| A101F G103K T104C | not detected | 0/3 |

Nonspecific signal, from three strains lacking the peptide, appeared in 15% of pairings of library AAYL49, centred on 11 µM (5% of these signals below 680 nM); values are not corrected for it.

The measurements come from Engelhart et al. 2022 (doi:10.1038/s41597-022-01779-4) through the FLAb antibody collection.